# According to patent US20050250737A1, “Therapeutic ophthalmic compositions containing retinal friendly excipients and related methods” (Allergan, Inc., priority 2003, published 2005):
# Where two headings read alike, the source gives them in different places.
# Tested on: ARPE-19 cells
# Format: cell-based
# Procedure: Cell morphology was visualized using light microscopy. Cell morphology observation using light microscopy permits determination of (i) cell number and density and (ii) whether or not cells in contact with an excipient agent display modified phenotype compared to a non-treated population of cells.
# Cell morphology was analyzed in parallel by semi-quantitative scoring ranging from 5 to 1, from basal to lethal phenotype respectively, as shown in FIG. 23.
# More specifically, cells were removed from an incubator for examination. Morphological shape of cells was visualized using a light microscope and CCD camera. Every 3 wells of a given concentration was observed through image analysis software. Then, a representative photograph describing the average appearance of cells was saved. The supernatant was either, kept for further predefined experiments to perform, or removed using vacuum-pump.
# Resulting semi-quantitative scoring is represented as a function of time course and dose response. Score 5 : wild type phenotype of non-treated cells, 100% confluent adherent cells. This phenotype very much vary following post-seeding time. For example, at confluence ARPE-19 cells at 1 day appear well defined with visible outer membrane and dark grey cytoplasm. After 3 days of confluence, limits between cells become less visible and cells adopt a more hexagonal shape and constitute an epithelium-like uniform dense structure. Score 4: density <100%. Cell shape has changed, some spaces are present between cells, few cells possibly detached. Score 3: 80% <Cell density <40%. Spaces are sometimes present among cells, areas appears confluent while in others, cells detached. General cell shape starts showing non negligible alterations. Score 2: Cell density <50%. Cells adopt exclusively stressed appearance, presence of mass dead floating cells. Score 1: Cell density <10%. Presence of almost exclusively dead cells.
# Based on quotation, each condition of the applied compound was given a score which allow to a morphology evolution profile to be prepared, ie. cell morphology as a function of compound concentration and time of exposure. […]
substance,measurement,setting,value
hydroxypropyl gamma-cyclodextrin [Cavasol],"Cell morphology score (5 to 1), Mean","0.05% excipient, 24 hours",5.0
same,"Cell morphology score, experiment 1","0.05% excipient, 24 hours","5 (Score 5 : wild type phenotype of non-treated cells, 100% confluent adherent cells)"
same,"Cell morphology score, experiment 2","0.05% excipient, 24 hours","5 (Score 5 : wild type phenotype of non-treated cells, 100% confluent adherent cells)"
same,"Cell morphology score, experiment 3","0.05% excipient, 24 hours","5 (Score 5 : wild type phenotype of non-treated cells, 100% confluent adherent cells)"
same,"Cell morphology score (5 to 1), Mean","0.05% excipient, 48 hours",5.0
same,"Cell morphology score, experiment 1","0.05% excipient, 48 hours","5 (Score 5 : wild type phenotype of non-treated cells, 100% confluent adherent cells)"
same,"Cell morphology score, experiment 2","0.05% excipient, 48 hours","5 (Score 5 : wild type phenotype of non-treated cells, 100% confluent adherent cells)"
same,"Cell morphology score, experiment 3","0.05% excipient, 48 hours","5 (Score 5 : wild type phenotype of non-treated cells, 100% confluent adherent cells)"
same,"Cell morphology score (5 to 1), Mean","0.05% excipient, 72 hours",5.0
same,"Cell morphology score, experiment 1","0.05% excipient, 72 hours","5 (Score 5 : wild type phenotype of non-treated cells, 100% confluent adherent cells)"
same,"Cell morphology score, experiment 2","0.05% excipient, 72 hours","5 (Score 5 : wild type phenotype of non-treated cells, 100% confluent adherent cells)"
same,"Cell morphology score, experiment 3","0.05% excipient, 72 hours","5 (Score 5 : wild type phenotype of non-treated cells, 100% confluent adherent cells)"
same,"Cell morphology score (5 to 1), Mean","0.1% excipient, 24 hours",5.0
same,"Cell morphology score, experiment 1","0.1% excipient, 24 hours","5 (Score 5 : wild type phenotype of non-treated cells, 100% confluent adherent cells)"
same,"Cell morphology score, experiment 2","0.1% excipient, 24 hours","5 (Score 5 : wild type phenotype of non-treated cells, 100% confluent adherent cells)"
same,"Cell morphology score, experiment 3","0.1% excipient, 24 hours","5 (Score 5 : wild type phenotype of non-treated cells, 100% confluent adherent cells)"
same,"Cell morphology score (5 to 1), Mean","0.1% excipient, 48 hours",5.0
same,"Cell morphology score, experiment 1","0.1% excipient, 48 hours","5 (Score 5 : wild type phenotype of non-treated cells, 100% confluent adherent cells)"
same,"Cell morphology score, experiment 2","0.1% excipient, 48 hours","5 (Score 5 : wild type phenotype of non-treated cells, 100% confluent adherent cells)"
same,"Cell morphology score, experiment 3","0.1% excipient, 48 hours","5 (Score 5 : wild type phenotype of non-treated cells, 100% confluent adherent cells)"
same,"Cell morphology score (5 to 1), Mean","0.1% excipient, 72 hours",4.7
same,"Cell morphology score, experiment 1","0.1% excipient, 72 hours","5 (Score 5 : wild type phenotype of non-treated cells, 100% confluent adherent cells)"
same,"Cell morphology score, experiment 2","0.1% excipient, 72 hours","5 (Score 5 : wild type phenotype of non-treated cells, 100% confluent adherent cells)"
same,"Cell morphology score, experiment 3","0.1% excipient, 72 hours",4 (Score 4: density <100%)
same,"Cell morphology score (5 to 1), Mean","0.5% excipient, 24 hours",5.0
same,"Cell morphology score, experiment 1","0.5% excipient, 24 hours","5 (Score 5 : wild type phenotype of non-treated cells, 100% confluent adherent cells)"
same,"Cell morphology score, experiment 2","0.5% excipient, 24 hours","5 (Score 5 : wild type phenotype of non-treated cells, 100% confluent adherent cells)"
same,"Cell morphology score, experiment 3","0.5% excipient, 24 hours","5 (Score 5 : wild type phenotype of non-treated cells, 100% confluent adherent cells)"
same,"Cell morphology score (5 to 1), Mean","0.5% excipient, 48 hours",4.7
same,"Cell morphology score, experiment 1","0.5% excipient, 48 hours","5 (Score 5 : wild type phenotype of non-treated cells, 100% confluent adherent cells)"
same,"Cell morphology score, experiment 2","0.5% excipient, 48 hours","5 (Score 5 : wild type phenotype of non-treated cells, 100% confluent adherent cells)"
same,"Cell morphology score, experiment 3","0.5% excipient, 48 hours",4 (Score 4: density <100%)
same,"Cell morphology score (5 to 1), Mean","0.5% excipient, 72 hours",4.3
same,"Cell morphology score, experiment 1","0.5% excipient, 72 hours","5 (Score 5 : wild type phenotype of non-treated cells, 100% confluent adherent cells)"
same,"Cell morphology score, experiment 2","0.5% excipient, 72 hours","5 (Score 5 : wild type phenotype of non-treated cells, 100% confluent adherent cells)"
same,"Cell morphology score, experiment 3","0.5% excipient, 72 hours",3 (Score 3: 80% <Cell density <40%)
same,"Cell morphology score (5 to 1), Mean","1.0% excipient, 24 hours",5.0
same,"Cell morphology score, experiment 1","1.0% excipient, 24 hours","5 (Score 5 : wild type phenotype of non-treated cells, 100% confluent adherent cells)"
same,"Cell morphology score, experiment 2","1.0% excipient, 24 hours","5 (Score 5 : wild type phenotype of non-treated cells, 100% confluent adherent cells)"
same,"Cell morphology score, experiment 3","1.0% excipient, 24 hours","5 (Score 5 : wild type phenotype of non-treated cells, 100% confluent adherent cells)"
same,"Cell morphology score (5 to 1), Mean","1.0% excipient, 48 hours",4.7
same,"Cell morphology score, experiment 1","1.0% excipient, 48 hours","5 (Score 5 : wild type phenotype of non-treated cells, 100% confluent adherent cells)"
same,"Cell morphology score, experiment 2","1.0% excipient, 48 hours","5 (Score 5 : wild type phenotype of non-treated cells, 100% confluent adherent cells)"
same,"Cell morphology score, experiment 3","1.0% excipient, 48 hours",4 (Score 4: density <100%)
same,"Cell morphology score (5 to 1), Mean","1.0% excipient, 72 hours",3.7
same,"Cell morphology score, experiment 1","1.0% excipient, 72 hours","5 (Score 5 : wild type phenotype of non-treated cells, 100% confluent adherent cells)"
same,"Cell morphology score, experiment 2","1.0% excipient, 72 hours","5 (Score 5 : wild type phenotype of non-treated cells, 100% confluent adherent cells)"
same,"Cell morphology score, experiment 3","1.0% excipient, 72 hours",1 (Score 1: Cell density <10%)
same,"Cell morphology score (5 to 1), Mean","5.0% excipient, 24 hours",4.3
same,"Cell morphology score, experiment 1","5.0% excipient, 24 hours","5 (Score 5 : wild type phenotype of non-treated cells, 100% confluent adherent cells)"
same,"Cell morphology score, experiment 2","5.0% excipient, 24 hours","5 (Score 5 : wild type phenotype of non-treated cells, 100% confluent adherent cells)"
same,"Cell morphology score, experiment 3","5.0% excipient, 24 hours",3 (Score 3: 80% <Cell density <40%)
same,"Cell morphology score (5 to 1), Mean","5.0% excipient, 48 hours",4.7
same,"Cell morphology score, experiment 1","5.0% excipient, 48 hours","5 (Score 5 : wild type phenotype of non-treated cells, 100% confluent adherent cells)"
same,"Cell morphology score, experiment 2","5.0% excipient, 48 hours","5 (Score 5 : wild type phenotype of non-treated cells, 100% confluent adherent cells)"
same,"Cell morphology score, experiment 3","5.0% excipient, 48 hours",4 (Score 4: density <100%)
same,"Cell morphology score (5 to 1), Mean","5.0% excipient, 72 hours",3.3
same,"Cell morphology score, experiment 1","5.0% excipient, 72 hours","5 (Score 5 : wild type phenotype of non-treated cells, 100% confluent adherent cells)"
same,"Cell morphology score, experiment 2","5.0% excipient, 72 hours",4 (Score 4: density <100%)
same,"Cell morphology score, experiment 3","5.0% excipient, 72 hours",1 (Score 1: Cell density <10%)
same,"Cell morphology score (5 to 1), Mean","10.0% excipient, 24 hours",4.3
same,"Cell morphology score, experiment 1","10.0% excipient, 24 hours","5 (Score 5 : wild type phenotype of non-treated cells, 100% confluent adherent cells)"
same,"Cell morphology score, experiment 2","10.0% excipient, 24 hours","5 (Score 5 : wild type phenotype of non-treated cells, 100% confluent adherent cells)"
same,"Cell morphology score, experiment 3","10.0% excipient, 24 hours",3 (Score 3: 80% <Cell density <40%)
same,"Cell morphology score (5 to 1), Mean","10.0% excipient, 48 hours",3.3
same,"Cell morphology score, experiment 1","10.0% excipient, 48 hours","5 (Score 5 : wild type phenotype of non-treated cells, 100% confluent adherent cells)"
same,"Cell morphology score, experiment 2","10.0% excipient, 48 hours",4 (Score 4: density <100%)
same,"Cell morphology score, experiment 3","10.0% excipient, 48 hours",1 (Score 1: Cell density <10%)
same,"Cell morphology score (5 to 1), Mean","10.0% excipient, 72 hours",3.0
same,"Cell morphology score, experiment 1","10.0% excipient, 72 hours",4 (Score 4: density <100%)
same,"Cell morphology score, experiment 2","10.0% excipient, 72 hours",4 (Score 4: density <100%)
same,"Cell morphology score, experiment 3","10.0% excipient, 72 hours",1 (Score 1: Cell density <10%)
